These results are taken from PubChem BioAssay AID720543 (The Scripps Research Institute Molecular Screening Center, 2013).

By UniProt entry, the sequences of proteins in these tests, tags left out.
UniProt Q8VD66, whole entry: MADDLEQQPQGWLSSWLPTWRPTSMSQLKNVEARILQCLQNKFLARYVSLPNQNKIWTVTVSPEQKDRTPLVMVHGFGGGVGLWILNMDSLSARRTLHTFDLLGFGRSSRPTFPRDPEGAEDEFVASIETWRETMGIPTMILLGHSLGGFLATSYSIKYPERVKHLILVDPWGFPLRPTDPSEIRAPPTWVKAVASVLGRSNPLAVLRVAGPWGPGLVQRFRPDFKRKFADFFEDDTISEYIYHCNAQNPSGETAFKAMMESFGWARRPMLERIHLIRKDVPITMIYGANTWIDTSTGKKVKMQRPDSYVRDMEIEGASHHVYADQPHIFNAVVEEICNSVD

SMILES strings stand for the structures. The entries are a selection whose mix differs from that of the whole data set. Some salts or complexes appear as unconnected parts, following the source record. The source made the active and inactive calls.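 How the source made its calls: active means inhibition exceeding the mean over every tested compound plus 3 SD (cut at about 30% in these data); inactive means the rest.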

The test addresses (Lyso)-N-acylphosphatidylethanolamine lipase (Mus musculus) (UniProt Q8VD66). Kind of test: ABHD4 inhibitors, primary screen, biochemical, fluorescence polarization, mouse (AID 720543).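 Further: 0% = plate median of compound wells and 100% = S159A mutant with DMSO.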 The settings on record: purified mABHD4, FP-Rh probe fluorescence polarization; at 8.92 µM; hits give high values. An outline of the steps:
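assay system = mABHD4 protein | compound dosing = single nominal dose of 8.92 µM, 0.89% DMSO final | read-out basis = percent inhibition of probe binding, normalized to plate controls | schedule = Enzyme–compound pre-incubation 45 min, then probe 60 min, both 25 °C | detection = fluorescence polarization, excitation 525 nm, emission 598 nm, BODIPY TMR filters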
Usually inhibition stands for the drop in the measured response relative to a control, in per cent. For the compound `CN(C)C(=O)c1c([N+](=O)[O-])cc([N+](=O)[O-])cc1[N+](=O)[O-]`, the inhibition is inactive: -1.97%.

For the compound `CP(=O)(Nc1ccc(Cl)cc1)Oc1ccc(F)cc1` (centres undefined), the inhibition is inactive: -7.92%.

Turning to `CC(C)(C)c1ccc(OP(C)(=O)O)cc1`, the inhibition is inactive: 1.1%.

For the compound `COc1ccccc1OP(C)(=O)Nc1ccccc1Br` (centres undefined), the inhibition was inactive: -0.79%.

For the compound `CCc1ccc(OP(C)(=O)Nc2cccnc2)cc1` (centres undefined), the inhibition was inactive: 3.27%.

On to `CP(=O)(Oc1ccccc1)N1CCOC1=O` (centres undefined), for which the inhibition is inactive: -0.89%.

Consider `O=C(OCCCN1CCCC1)C(O)(c1ccccc1)C1CCCCC1` (centres undefined), for which the inhibition is inactive: -6.49%.

Consider `COc1ccccc1OP(C)(=O)Nc1c(C)n(C)n(-c2ccccc2)c1=O` (centres undefined), for which the inhibition was inactive: 3.39%.

With `COc1ccc(OP(C)(=O)Nc2ccc(Br)cc2)cc1` (centres undefined), the inhibition is inactive: -7.1%.

For `CCN(CC)CC(O)COC(=O)C(O)(c1ccccc1)C1CCCCC1` (centres undefined), the inhibition was inactive: 7.05%.

Take `CP(=O)(OC12CC3CC(CC(C3)C1)C2)OC12CC3CC(CC(C3)C1)C2`: the inhibition was inactive: 14.6%.

As to `CCOC(=O)c1ccc(NP(C)(=O)Oc2ccc(Cl)cc2)cc1` (centres undefined), the inhibition was inactive: -5.07%.

As for `Nc1ccc2c(ccc3cccnc32)n1.O=[N+]([O-])c1cc([N+](=O)[O-])c(O)c([N+](=O)[O-])c1`, the inhibition was inactive: -0.02%.

With `CP(=O)(OCCOc1ccccc1)OCCOc1ccccc1`, the inhibition was inactive: -8.4%.

For the compound `CP(=O)(Nc1ccc(Cl)cc1Cl)Oc1ccccc1` (centres undefined), the inhibition is inactive: -4.6%.

Take `CCCCCCCCCCCCCCCC1C[N+](C)(C)CCOP(C)(=O)O1` (centres undefined): the inhibition is active: 32.2%.

Regarding `COc1ccc(OP(C)(=O)Nc2ccccc2Br)cc1` (centres undefined), the inhibition is inactive: 8.76%.

On to `COc1ccccc1OP(C)(=O)Nc1ccc(C)c(C)c1` (centres undefined), for which the inhibition was inactive: 4.52%.

Take `Cc1cc(C)cc(OP(C)(=O)Nc2cccc(C(F)(F)F)c2)c1` (centres undefined): the inhibition was inactive: -1.77%.

Take `O=C1C(O)=C([N+](=O)[O-])C(=O)C(O)=C1[N+](=O)[O-]`: the inhibition is inactive: 26.2%.

For `CCc1ccc(OP(C)(=O)O)cc1`, the inhibition is inactive: 2.09%.

`COc1ccccc1OP(C)(=O)Nc1ccc(C)cc1C` (centres undefined): the inhibition is inactive: 2.85%.

`CP(=O)(Nc1ccccn1)Oc1ccccc1` (centres undefined): the inhibition is inactive: 0.24%.

Take `O=[N+]([O-])c1cc([N+](=O)[O-])c(Nc2ccccn2)c([N+](=O)[O-])c1`: the inhibition was inactive: -1.86%.

On to `Cc1c(NP(C)(=O)Oc2ccc(C(C)C)cc2)c(=O)n(-c2ccccc2)n1C` (centres undefined), for which the inhibition is inactive: -4.92%.

For `CN(C)CCOC(=O)C(O)(c1ccccc1)C1CCCC1` (centres undefined), the inhibition is inactive: -4.52%.

In the case of `COc1ccc(OP(C)(=O)Nc2ccccn2)cc1` (centres undefined), the inhibition is inactive: -3.32%.

For `COc1ccccc1OP(C)(=O)Nc1ccc(Br)cc1` (centres undefined), the inhibition is inactive: 2.54%.

For `COc1ccc2c(c1O)-c1c(O)c(OC)cc3c1[C@H](C2)[N+](C)(C)CC3.O=[N+]([O-])c1cc([N+](=O)[O-])c([O-])c([N+](=O)[O-])c1[O-]`, the inhibition was inactive: 7.73%.

For `O=C(OCCN1CCN(CCOCc2ccccc2)CC1)C(O)(c1ccccc1)c1ccccc1`, the inhibition is inactive: 1.51%.

As to `O=C(OC1CN2CCC1CC2)c1ccc([N+](=O)[O-])cc1` (centres undefined), the inhibition was inactive: -4.78%.

In the case of `CC(C)c1ccc(OP(C)(=O)Nc2ccc(SC(F)(F)F)cc2)cc1` (centres undefined), the inhibition is inactive: -4.23%.

As to `CP(=O)(Nc1ccccc1F)Oc1ccccc1` (centres undefined), the inhibition is inactive: -1.32%.

For the compound `O=[N+]([O-])c1cc([N+](=O)[O-])c(Nc2ccc(Cl)cc2)c([N+](=O)[O-])c1`, the inhibition is inactive: 5.84%.

As to `O=[N+]([O-])c1cc([N+](=O)[O-])c(OC2CCCCC2O)c([N+](=O)[O-])c1` (centres undefined), the inhibition is inactive: -0.38%.

Take `CCCCCOc1ccc(NP(C)(=O)Oc2ccc(Cl)cc2Cl)cc1` (centres undefined): the inhibition was inactive: -3.31%.

On to `CP(=O)(Nc1ccccc1)Oc1ccc(F)cc1` (centres undefined), for which the inhibition was inactive: 3.95%.

As to `CCN(CC)CCCOC(=O)C(O)(c1ccccc1)C1CCCCC1` (centres undefined), the inhibition is inactive: 9.82%.

As to `Cc1c([N+](=O)[O-])cc([N+](=O)[O-])c(Br)c1[N+](=O)[O-]`, the inhibition is inactive: -20.3%.

As to `COc1ccc(OP(C)(=O)Nc2ccc(SC(F)(F)F)cc2)cc1` (centres undefined), the inhibition was inactive: -8.76%.

Take `CCOC(=O)c1ccc(NP(C)(=O)Oc2ccc(F)cc2)cc1` (centres undefined): the inhibition is inactive: 4.91%.

`CCN(CC)CCCNc1ccccc1[N+](=O)[O-].O=[N+]([O-])c1cc([N+](=O)[O-])c(O)c([N+](=O)[O-])c1`: the inhibition is inactive: -7.5%.

In the case of `Cc1c(C(c2ccc3c(c2)OCO3)c2c(C)n(C)n(-c3ccccc3)c2=O)c(=O)n(-c2ccccc2)n1C.O=[N+]([O-])c1cc([N+](=O)[O-])c(O)c([N+](=O)[O-])c1`, the inhibition was inactive: 3.54%.

Take `O=[N+]([O-])c1cc([N+](=O)[O-])c(NCC2CCS(=O)(=O)C2)c([N+](=O)[O-])c1` (centres undefined): the inhibition was inactive: 8.5%.

Take `Cc1cc(-c2cccc3ccccc23)c(C)cn1.O=[N+]([O-])c1cc([N+](=O)[O-])c(O)c([N+](=O)[O-])c1`: the inhibition was inactive: -6.31%.

Consider `O=[N+]([O-])c1ccc(OP2(=O)COCCO2)cc1` (centres undefined), for which the inhibition is inactive: 0.86%.

In the case of `COc1ccc(NP(C)(=O)Oc2ccccc2OC)cc1` (centres undefined), the inhibition was inactive: -0.05%.

For `CN(C)CCOC(=O)C(O)(c1ccccc1)C1CCCCC1` (centres undefined), the inhibition is inactive: -2.15%.

Regarding `COc1ccc(OP(C)(=O)Nc2cccc(Br)c2)cc1` (centres undefined), the inhibition was inactive: -6.01%.
